We go through 13 molecules from patent US12421225B2, “Heteroaromatic amide derivative and medicament containing the same” (KAKEN PHARMACEUTICAL CO., LTD., priority 2018, dated 2025).

Chains of the proteins cited; added tags and fusions are not shown. Residues count along the entry.
UniProt Q15858, whole entry: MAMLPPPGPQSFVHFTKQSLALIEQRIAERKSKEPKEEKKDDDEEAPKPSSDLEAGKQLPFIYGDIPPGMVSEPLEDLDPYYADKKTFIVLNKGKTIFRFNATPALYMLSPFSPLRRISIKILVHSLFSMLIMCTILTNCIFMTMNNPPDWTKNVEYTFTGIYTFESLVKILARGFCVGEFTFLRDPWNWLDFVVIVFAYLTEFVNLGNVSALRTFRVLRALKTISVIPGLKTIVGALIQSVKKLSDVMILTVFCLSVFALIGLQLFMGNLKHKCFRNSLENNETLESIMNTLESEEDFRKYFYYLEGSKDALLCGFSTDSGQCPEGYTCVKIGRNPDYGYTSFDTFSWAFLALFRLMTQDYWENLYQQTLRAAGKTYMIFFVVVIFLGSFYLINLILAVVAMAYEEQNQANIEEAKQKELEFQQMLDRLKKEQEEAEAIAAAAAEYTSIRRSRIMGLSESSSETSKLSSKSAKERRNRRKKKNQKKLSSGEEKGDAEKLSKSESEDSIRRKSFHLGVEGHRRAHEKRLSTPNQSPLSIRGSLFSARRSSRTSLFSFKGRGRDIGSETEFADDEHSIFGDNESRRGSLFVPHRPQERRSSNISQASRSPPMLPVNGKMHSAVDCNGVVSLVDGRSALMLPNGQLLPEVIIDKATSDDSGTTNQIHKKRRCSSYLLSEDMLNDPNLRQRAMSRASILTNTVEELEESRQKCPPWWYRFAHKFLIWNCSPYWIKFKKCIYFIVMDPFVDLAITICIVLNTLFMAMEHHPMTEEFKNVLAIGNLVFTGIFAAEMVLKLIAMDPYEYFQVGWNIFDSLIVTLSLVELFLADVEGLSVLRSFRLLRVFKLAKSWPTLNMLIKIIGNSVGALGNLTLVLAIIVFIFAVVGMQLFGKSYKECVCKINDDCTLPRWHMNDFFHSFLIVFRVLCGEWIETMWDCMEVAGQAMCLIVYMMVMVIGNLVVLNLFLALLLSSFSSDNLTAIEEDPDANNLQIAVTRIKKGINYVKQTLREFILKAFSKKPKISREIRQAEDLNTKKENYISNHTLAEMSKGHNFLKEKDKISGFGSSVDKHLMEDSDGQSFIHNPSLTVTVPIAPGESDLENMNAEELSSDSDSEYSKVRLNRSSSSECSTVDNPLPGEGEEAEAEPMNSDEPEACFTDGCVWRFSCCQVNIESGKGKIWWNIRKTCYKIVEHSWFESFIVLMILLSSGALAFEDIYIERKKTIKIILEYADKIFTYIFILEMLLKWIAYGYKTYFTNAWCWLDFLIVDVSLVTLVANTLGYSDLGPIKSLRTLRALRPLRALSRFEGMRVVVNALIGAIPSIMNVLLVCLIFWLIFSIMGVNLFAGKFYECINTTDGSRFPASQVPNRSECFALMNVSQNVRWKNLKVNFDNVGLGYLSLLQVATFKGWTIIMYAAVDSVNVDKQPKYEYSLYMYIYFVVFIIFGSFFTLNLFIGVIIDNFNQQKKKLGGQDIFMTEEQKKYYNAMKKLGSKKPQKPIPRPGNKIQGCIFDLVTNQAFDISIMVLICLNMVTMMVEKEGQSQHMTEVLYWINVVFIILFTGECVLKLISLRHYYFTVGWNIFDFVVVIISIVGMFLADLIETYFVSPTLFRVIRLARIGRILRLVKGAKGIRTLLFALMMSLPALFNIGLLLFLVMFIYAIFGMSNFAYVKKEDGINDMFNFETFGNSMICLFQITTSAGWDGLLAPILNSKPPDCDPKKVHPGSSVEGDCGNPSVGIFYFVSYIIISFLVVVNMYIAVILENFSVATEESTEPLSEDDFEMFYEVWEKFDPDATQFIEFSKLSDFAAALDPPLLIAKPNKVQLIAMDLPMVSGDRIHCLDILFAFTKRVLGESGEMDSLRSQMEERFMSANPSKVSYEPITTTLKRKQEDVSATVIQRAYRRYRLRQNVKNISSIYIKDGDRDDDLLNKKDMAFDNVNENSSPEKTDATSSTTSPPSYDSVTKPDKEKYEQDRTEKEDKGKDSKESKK
UniProt Q14524, whole entry: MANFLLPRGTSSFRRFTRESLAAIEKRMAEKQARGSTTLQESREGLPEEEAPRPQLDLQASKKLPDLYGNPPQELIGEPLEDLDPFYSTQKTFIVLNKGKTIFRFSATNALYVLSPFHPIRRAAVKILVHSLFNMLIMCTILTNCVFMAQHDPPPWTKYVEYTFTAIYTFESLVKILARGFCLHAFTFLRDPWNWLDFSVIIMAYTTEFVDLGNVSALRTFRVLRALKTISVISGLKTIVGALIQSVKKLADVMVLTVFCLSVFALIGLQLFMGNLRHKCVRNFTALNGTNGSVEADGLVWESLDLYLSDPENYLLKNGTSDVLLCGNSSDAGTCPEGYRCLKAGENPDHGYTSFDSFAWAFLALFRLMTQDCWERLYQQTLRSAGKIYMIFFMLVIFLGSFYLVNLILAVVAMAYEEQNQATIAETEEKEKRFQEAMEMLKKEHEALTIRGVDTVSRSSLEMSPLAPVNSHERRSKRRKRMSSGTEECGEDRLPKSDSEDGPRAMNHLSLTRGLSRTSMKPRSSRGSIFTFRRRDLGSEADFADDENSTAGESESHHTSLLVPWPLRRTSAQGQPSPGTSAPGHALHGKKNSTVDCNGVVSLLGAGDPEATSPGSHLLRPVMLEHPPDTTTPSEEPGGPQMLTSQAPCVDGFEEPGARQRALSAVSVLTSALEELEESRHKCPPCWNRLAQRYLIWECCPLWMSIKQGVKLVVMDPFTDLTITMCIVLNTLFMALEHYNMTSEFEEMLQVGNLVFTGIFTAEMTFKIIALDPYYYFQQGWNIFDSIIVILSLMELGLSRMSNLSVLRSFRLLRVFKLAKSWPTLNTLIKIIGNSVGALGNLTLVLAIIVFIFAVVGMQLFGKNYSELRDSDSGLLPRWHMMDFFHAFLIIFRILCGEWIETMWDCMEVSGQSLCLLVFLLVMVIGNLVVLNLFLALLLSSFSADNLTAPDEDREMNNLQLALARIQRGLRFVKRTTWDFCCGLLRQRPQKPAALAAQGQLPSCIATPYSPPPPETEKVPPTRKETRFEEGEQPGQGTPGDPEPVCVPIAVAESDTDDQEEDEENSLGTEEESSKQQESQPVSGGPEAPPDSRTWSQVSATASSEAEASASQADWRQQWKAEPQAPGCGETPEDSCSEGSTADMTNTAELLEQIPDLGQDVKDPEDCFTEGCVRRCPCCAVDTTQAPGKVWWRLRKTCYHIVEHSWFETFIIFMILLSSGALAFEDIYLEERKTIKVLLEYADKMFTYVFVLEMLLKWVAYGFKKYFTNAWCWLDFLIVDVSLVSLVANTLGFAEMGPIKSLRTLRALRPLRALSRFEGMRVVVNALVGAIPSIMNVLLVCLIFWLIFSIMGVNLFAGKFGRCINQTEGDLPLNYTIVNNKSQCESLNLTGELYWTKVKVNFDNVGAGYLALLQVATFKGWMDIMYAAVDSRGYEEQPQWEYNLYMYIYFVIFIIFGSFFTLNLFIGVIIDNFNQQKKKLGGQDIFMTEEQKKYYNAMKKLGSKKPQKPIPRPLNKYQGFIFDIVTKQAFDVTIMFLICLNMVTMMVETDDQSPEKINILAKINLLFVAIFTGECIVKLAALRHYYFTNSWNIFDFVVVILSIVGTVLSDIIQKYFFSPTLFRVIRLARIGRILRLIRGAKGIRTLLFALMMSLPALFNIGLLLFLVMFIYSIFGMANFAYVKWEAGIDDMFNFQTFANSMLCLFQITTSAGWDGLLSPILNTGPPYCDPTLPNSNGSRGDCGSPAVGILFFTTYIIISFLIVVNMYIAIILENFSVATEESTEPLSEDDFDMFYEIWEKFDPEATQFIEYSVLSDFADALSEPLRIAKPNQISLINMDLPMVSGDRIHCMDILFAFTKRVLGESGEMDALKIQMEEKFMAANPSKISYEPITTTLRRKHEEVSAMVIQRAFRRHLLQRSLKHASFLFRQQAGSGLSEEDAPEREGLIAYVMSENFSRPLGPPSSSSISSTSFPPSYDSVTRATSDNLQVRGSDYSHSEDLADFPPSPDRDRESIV
UniProt Q07699, 19-218 partner limits assumed: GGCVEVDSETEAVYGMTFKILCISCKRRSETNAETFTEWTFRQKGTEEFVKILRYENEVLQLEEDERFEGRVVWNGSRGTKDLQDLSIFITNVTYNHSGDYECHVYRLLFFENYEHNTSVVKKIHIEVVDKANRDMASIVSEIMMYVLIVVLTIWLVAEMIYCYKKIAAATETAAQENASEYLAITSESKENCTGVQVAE

Where two headings read alike, the source gives them in different places.

One data set concerns the target human Nav1.7 (Homo sapiens (Human), UniProt Q15858). Briefly: Human Nav1.7 inhibitory activity evaluation (automated patch clamp QPatch16X, HEK293A cells stably expressing human Nav1.7 and human Navβ1). The following applies: read-out: NaV1.7 IC50. The protocol: Test Example 1: Human Nav1.7 Inhibitory Activity Evaluation
A cell line in which human Nav1.7 and human Navβ1 subunits were stably expressed in HEK293A cells was used. Dulbecco's Modified Eagle Medium (DMEM) supplemeted with 10% fetal bovine serum, 600 μg/ml geneticin, and 2 μg/ml blasticidin S were used as culture medium under the conditions of 37° C. and 5% CO2 in T175 flasks to carry out culturing. When 60-80% confluence was reached, the cells were detached and a cell suspension of about 0.5-5.0×10^6 cells/mL was prepared. The amount of current through human Nav1.7 was recorded using a fully automatic patch clamp device QPatch16X (Sophion Biosciences) at room temperature. As the extracellular solution, the solution of 145 mM NaCl, 4 mM KCl, 1 mM MgCl2, 2 mM CaCl2, 10 mM Glucose, 10 mM 4-(2-hydroxyethyl)-1-piperazine ethanesulfonic acid (HEPES) at pH 7.4 was used. As the intracellular solution, the solution of 135 mM CsF, ⅕ mM glycol ether diaminetetraacetic acid (EGTA)/CsOH, 10 mM HEPES, 10 mM NaCl at pH 7.3 was used. The test compounds were dissolved in dimethyl sulfoxide (DMSO) and diluted with the extracellular solution to attain the DMSO concentration of 0.1% at the time of assay.
The current response was obtained at a sampling frequency of 25 kHz, and noise was removed with a 3 kHz low-pass filter. The holding potential was −100 mV. Correction of the leakage current was carried out by applying a step pulse of −120 mV before the test pulse. In order to investigate inhibitory action of the test compound, the following test pulse was given: Namely, after depolarizing pulse of −10 mV was applied for 50 milliseconds, it was fixed at −120 mV for 500 milliseconds; a potential at which about 30-40% of the channel was inactivated was maintained for 15 seconds, then fixed again at −120 mV for 100 milliseconds, and finally a −10 mV depolarization pulse was given for 50 milliseconds. Test pulses were given before and after the test compound addition.
The inhibitory activity of the test compound was determined based on the amount of inward current generated by the second depolarization pulse, and the 50% inhibitory concentration (IC50) was calculated from the concentration-response curve.
(In patch-clamp work, channel activity is measured electrically.)

The target of another data set is human Nav1.5 (Homo sapiens (Human), UniProt Q14524). Briefly: Human Nav1.5 inhibitory activity evaluation (automated patch clamp QPatch16X, HEK293 cells stably expressing human Nav1.5). The note with it: read-out: NaV1.5 IC50; human Nav1.5, automated patch clamp. The protocol: Test Example 2: Human Nav1.5 Inhibitory Activity Evaluation
A cell line in which human Nav1.5 was stably expressed in HEK293 cells was used. DMEM supplemeted with 15% fetal bovine serum, 500 μg/ml geneticin, 100 units/ml penicillin, 100 μg/ml streptomycin, 20 mM HEPES was used as culture medium under the conditions of 37° C. and 5% CO2 in T175 flasks to carry out culturing. When 60-80% confluence was reached, a cell suspension of about 0.5-5.0×10^6 cells/mL was prepared. The amount of current through human Nav1.5 was recorded using a fully automatic patch clamp device QPatch16X at room temperature. As the extracellular solution, 145 mM NaCl, 4 mM KCl, 1 mM MgCl2, 2 mM CaCl2, 10 mM Glucose, and 10 mM HEPES at pH 7.4 was used. As the intracellular solution, 135 mM CsF, ⅕ mM EGTA/CsOH, 10 mM HEPES, and 10 mM NaCl at pH 7.3 was used. The test compounds were dissolved in DMSO and diluted with the extracellular solution to attend the DMSO concentration of 0.1% at the time of assay.
The current response was obtained at a sampling frequency of 25 kHz, and noise was removed with a 3 kHz low-pass filter. The holding potential was −80 mV. Correction of the leakage current was carried out by applying a step pulse of −100 mV before the test pulse. In order to investigate human Nav1.5 inhibitory effect of the test compound, test pulses imitating the action potential of cardiomyocytes were continuously given 20 times. The test pulses were given before and after the test compound addition.
The inhibitory activity of the test compound was determined based on the amount of inward current generated by the 20th depolarization pulse, and the 50% inhibitory concentration (IC50) was calculated from the concentration-response curve.

Setting [1] is: human Nav1.7, automated patch clamp.

A word on the IC50: it is the concentration that inhibits the measured activity by half. With `O=C(N[C@H]1COc2ccc(C(F)(F)F)cc2C1F)c1cc2n(n1)CCC(C(F)F)O2` (single isomer, unassigned), the IC50 on human Nav1.7 (setting [1]) is < 1000 nM.
Still for that read-out and setting: with `O=C(N[C@H]1COc2ccc(C(F)(F)F)cc2C1)c1nn2c(c1-c1ccn[nH]1)C(=O)N(CC(F)(F)F)CC2` the figure was < 10000 nM; with `O=C(N[C@H]1COc2ccc(Cl)cc2C1)c1cn2c(n1)OC(COCC1CC1)C2` (stereo partly drawn), < 10000 nM.
Take `O=C(N[C@H]1COc2ccc(C(F)(F)F)cc2C1)c1cc2n(n1)CC(CCN1CC(F)(F)C1)O2` (single isomer, unassigned): the results for the IC50 on human Nav1.5 and on human Nav1.7 (setting [1]) were 1000 to 3000 nM and < 1000 nM, respectively.
For `O=C(N[C@H]1COc2ccc(CC(F)F)cc2C1)c1cc2n(n1)CC(COCC(F)(F)F)O2` (stereo partly drawn), in that order: > 3000 nM and < 1000 nM.
The like results for `N#Cc1ccc2c(c1)C[C@@H](NC(=O)c1cc3n(n1)CCC(COCC(F)(F)F)CO3)CO2` (single isomer, unassigned) were, in that order, > 3000 nM and < 10000 nM.
Consider `O=C(N[C@H]1COc2ccc(Cl)cc2C1)c1cc2n(n1)CCC(COCc1ccccc1)O2` (stereo partly drawn), for which the IC50 at human Nav1.7 (HEK293A cells stably expressing human Nav1.7 and human Navβ1, automated patch clamp QPatch16X) is < 1000 nM.
In the case of `O=C(N[C@H]1COc2ccc(C(F)(F)F)cc2C1O)c1cc2n(n1)CC(COCC1CC1)O2` (single isomer, unassigned), at human Nav1.5, the IC50 is > 3000 nM.
Regarding `O=C(N[C@H]1COc2ccc(Cl)cc2C1)c1cc2n(n1)CCN(C1(c3ccccn3)CC1)C2`, the IC50 was 1000 to 3000 nM on human Nav1.5 and < 10000 nM at human Nav1.7 (setting [1]).
As for `N#Cc1ccc2c(c1)C[C@@H](NC(=O)c1cc3n(n1)CC(CC1CCOCC1)O3)CO2` (single isomer, unassigned), the IC50 on human Nav1.7 (setting [1]) is < 10000 nM.
Still for that read-out and setting: then `O=C(N[C@H]1COc2ccc(C(F)(F)F)cc2C1O)c1cc2n(n1)CCC(COCC1CC1)O2` (single isomer, unassigned), with < 10000 nM.
On to `O=C(N[C@H]1COc2ccc(Cl)cc2C1)c1cc2n(n1)CCN(C1(CC(F)(F)F)CC1)C2`, for which the IC50 at human Nav1.5 and on human Nav1.7 (setting [1]) was < 1000 nM in each case.
Take `O=C(N[C@H]1COc2ccc(Cl)cc2C1)c1nc2n(c1-c1ccn[nH]1)CCOC2`: on human Nav1.7 (setting [1]), the IC50 is < 1000 nM.
